The source of these data is paper PMC2935290 (Journal of immunology (Baltimore, Md. : 1950), 2010).

Assay [1] has as its target T1, HLA-DPB1*0402 (Homo sapiens, UniProt P04440+P20036, A65V/A84D/A85E/L207M).
T1 sequence (P04440 30-258 A65V/A84D/A85E): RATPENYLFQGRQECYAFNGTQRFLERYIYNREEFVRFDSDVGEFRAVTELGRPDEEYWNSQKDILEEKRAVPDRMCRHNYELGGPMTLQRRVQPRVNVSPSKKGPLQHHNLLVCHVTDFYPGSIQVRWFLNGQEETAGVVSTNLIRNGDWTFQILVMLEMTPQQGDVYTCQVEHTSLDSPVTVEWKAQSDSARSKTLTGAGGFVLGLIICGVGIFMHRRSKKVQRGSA
T1 sequence (P20036 29-260): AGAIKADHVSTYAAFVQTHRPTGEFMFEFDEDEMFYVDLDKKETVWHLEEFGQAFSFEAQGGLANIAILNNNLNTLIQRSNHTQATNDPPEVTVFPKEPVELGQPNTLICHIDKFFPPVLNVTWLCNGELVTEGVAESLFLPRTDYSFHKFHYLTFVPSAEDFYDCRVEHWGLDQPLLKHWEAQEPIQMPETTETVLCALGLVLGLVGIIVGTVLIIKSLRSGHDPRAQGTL
Nature of the assay: biochemical. The class given is binding.

Assay [2] concerns the target T2, HLA-DPB1*0201 (Homo sapiens, UniProt P04440+P20036, A65V/A84D/A85E/K98E).
T2 sequence (P04440 30-258 A65V/A84D/A85E/K98E): T1 sequence (P04440 30-258 A65V/A84D/A85E) with K69E
T2 sequence (P20036 29-260): T1 sequence (P20036 29-260)
Nature of the assay: biochemical. The class given is binding.

Residue numbers refer to the chain shown, from its start.

A word on the IC50: it is the midpoint of a concentration-inhibition curve.

As to `CC(C)C[C@H](NC(=O)[C@H](CC(=O)O)NC(=O)[C@H](CO)NC(=O)CNC(=O)[C@H](Cc1c[nH]cn1)NC(=O)[C@@H](NC(=O)[C@@H](NC(=O)[C@H](CS)NC(=O)[C@H](C)NC(=O)[C@H](CCCCN)NC(=O)[C@H](C)NC(=O)[C@H](CC(=O)O)NC(=O)[C@H](CCCNC(=N)N)NC(=O)[C@@H]1CCCN1C(=O)[C@@H](N)CC(N)=O)C(C)C)C(C)C)C(=O)N[C@@H](CCCCN)C(=O)O`, the IC50 in assay [1] was 6.4 µM; in assay [2], 2.36 µM.
